Test results taken from publication PMC8609367 (mBio, 2021).

Test system: interleukin-2 (IL-2) production in primary murine CD4+ T cells
Conditions: comparing 71-fold reduction in immunosuppressive activity and 17-fold reduction in efficacy in C. neoformans

In the case of `C=CCC1C=C(C)CC(C)CC(OC)C2OC(O)(C(=O)C(=O)N3CCCCC3C(=O)OC(C(C)=CC3CCC(O)C(OC)C3)C(C)C(O)CC1=NNC(C)=O)C(C)CC2OC` (stereo not shown) [APX879], the “Improvement in the therapeutic window” value was 4 fold.
